Test results: patent publication US20250197425A1, “2,6,9-TRISUBSTITUTED PURINES” (ASTRAZENECA AB, priority 2022, published 2025)

Protein sequences, listed by entry. Tags and fused reporters are not part of them.
UniProt P11802, whole entry: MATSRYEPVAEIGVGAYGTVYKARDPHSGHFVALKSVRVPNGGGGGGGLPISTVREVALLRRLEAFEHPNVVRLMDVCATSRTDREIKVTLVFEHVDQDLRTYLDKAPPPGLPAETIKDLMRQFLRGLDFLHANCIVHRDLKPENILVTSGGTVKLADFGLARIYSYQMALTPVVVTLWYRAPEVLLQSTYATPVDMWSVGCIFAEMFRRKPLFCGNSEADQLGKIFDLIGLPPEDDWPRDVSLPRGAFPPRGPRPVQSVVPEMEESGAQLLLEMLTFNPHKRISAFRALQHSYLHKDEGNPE
UniProt P06493, whole entry: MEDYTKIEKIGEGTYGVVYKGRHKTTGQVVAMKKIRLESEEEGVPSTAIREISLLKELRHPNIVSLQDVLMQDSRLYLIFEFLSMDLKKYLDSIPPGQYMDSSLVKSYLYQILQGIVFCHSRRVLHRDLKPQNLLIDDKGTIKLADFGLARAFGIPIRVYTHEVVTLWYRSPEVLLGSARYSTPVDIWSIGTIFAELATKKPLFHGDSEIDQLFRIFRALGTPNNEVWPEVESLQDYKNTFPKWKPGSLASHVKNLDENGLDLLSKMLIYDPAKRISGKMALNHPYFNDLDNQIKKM
UniProt P14635, whole entry partner: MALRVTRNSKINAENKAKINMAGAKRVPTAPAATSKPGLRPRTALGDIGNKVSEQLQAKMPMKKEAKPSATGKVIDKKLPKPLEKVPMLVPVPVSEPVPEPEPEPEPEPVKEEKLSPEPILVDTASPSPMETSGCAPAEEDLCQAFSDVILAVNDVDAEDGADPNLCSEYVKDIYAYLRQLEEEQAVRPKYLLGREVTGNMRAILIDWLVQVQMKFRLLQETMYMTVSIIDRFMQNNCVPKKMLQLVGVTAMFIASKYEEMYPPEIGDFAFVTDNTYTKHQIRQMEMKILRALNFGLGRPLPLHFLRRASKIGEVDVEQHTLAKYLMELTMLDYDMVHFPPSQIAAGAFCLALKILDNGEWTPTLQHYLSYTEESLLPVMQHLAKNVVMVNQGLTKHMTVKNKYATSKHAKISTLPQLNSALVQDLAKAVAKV
UniProt P24385, whole entry partner: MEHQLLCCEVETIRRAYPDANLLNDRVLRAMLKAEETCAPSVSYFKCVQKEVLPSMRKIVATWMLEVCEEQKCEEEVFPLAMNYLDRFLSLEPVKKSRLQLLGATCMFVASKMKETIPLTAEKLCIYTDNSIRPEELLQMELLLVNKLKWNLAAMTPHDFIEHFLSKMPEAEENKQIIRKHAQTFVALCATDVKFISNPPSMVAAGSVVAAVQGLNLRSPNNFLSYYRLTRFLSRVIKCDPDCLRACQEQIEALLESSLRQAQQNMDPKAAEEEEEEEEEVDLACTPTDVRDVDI

Assays:
[1] = system: POLR2A Ser2 phosphorylation (CDK9); test: POLR2A Ser2 phosphorylation imaging assay in MCF-7 cells; assay type: cell-based; details: read-out: POLR2A Ser2 phosphorylation IC50, 2 hours
CDK4:CCND1 = CDK4:CCND1 (Homo sapiens (Human), UniProt P11802); test: NanoBRET assay in MCF-7 cells, CDK4; assay type: cell-based; details: read-out: CDK4 IC50, transfected MCF-7 cells, 2 hours, n = 1 or average
CDK1:CCNB1 = CDK1:CCNB1 (Homo sapiens (Human), UniProt P06493); test: NanoBRET assay in MCF-7 cells, CDK1; assay type: cell-based; details: read-out: CDK1 IC50, transfected MCF-7 cells, 2 hours, n = 1 or average
MCF-7 cells = test: Cellular proliferation EdU assay, MCF-7; assay type: cell-based; details: read-out: MCF-7 IC50, two days
human hepatocytes = test: CLint assessment in human hepatocytes (HH); assay type: in vitro ADME; details: 1 μM
[2] = Aqueous thermodynamic solubility, shake-flask; assay type: physicochemical; details: phosphate buffer 0.1 M, pH 7.4, 24 hours, 25° C.
OVCAR3 cells = test: Cellular proliferation EdU assay, OVCAR3; assay type: cell-based, human; details: read-out: OVCAR3 IC50, two days
Caco-2 cells = test: Caco-2 cell permeability assay; assay type: in vitro ADME; details: Papp; 10 μM, 2 hours, 37° C.

For CC[C@H](Nc1nc(NCc2cnc(C)cc2C)c2ncn(C(C)C)c2n1)[C@@H](C)O, the IC50 [1] was 600 nM, the IC50 (CDK4:CCND1) was 2600 nM and the IC50 (CDK1:CCNB1) was 5720 nM. For the same molecule, the IC50 (MCF-7 cells) was 294 nM, the “HH CLint” value (human hepatocytes) was 8.3 µL/min/mg and the “AQUEOUS SOLUBILITY” value [2] was 740 µM. For the same molecule, the IC50 (OVCAR3 cells) was 316 nM and the “Caco-2 Intrinsic Permeability” value (Caco-2 cells) was 60.1 1E−6 · cm/s.
